In publication PMC8769072, “Proteome‐scale mapping of binding sites in the unstructured regions of the human proteome” (Molecular Systems Biology, 2022):

Assays:
[1] = system: immobilized GST-tagged bait protein domains; test: ProP-PD phage selections (HD2 P8, sublibraries, HD2 P3, HD1 P8) with NGS and confidence level; set-up: species or system human; conditions: bait MDM2_p53-binding-domain (Q00987 17-125), HD2 library
[2] = target: T1, MDM2 SWIB (Homo sapiens, UniProt Q00987); test: FP saturation (direct binding of FITC probe), MDM2 SWIB; conditions: Fig 3C; direct binding of FITC-labeled probe
T1 construct: Q00987; MDM2; SWIB; 17; 125; pETM33; Genescript; His-GST (cleaved yes); made in house; host or cells: bacteria (E. coli BL21(DE3) gold is named only for the phage-selection preparations)

[3] = target: T1, MDM2 SWIB; test: FP competition, MDM2 SWIB; type: binding; conditions: Fig 3C; FP competition with FITC-p53 probe; triplicates

How did the motif_found ([1]; benchmark motif instance recovered in the ProP-PD selection (TRUE/FALSE)) turn out when QETFSDLWKLLPENNV was run?
The motif_found was “TRUE”.

And the best_confidence ([1]; confidence level (1-4) of best matching peptide)?
Its best_confidence is 4.

What about the best_specificity ([1]; specificity score of best matching peptide) of the same compound?
Its best_specificity is 1.

Which Kd [2] does the source give for `CC(C)C[C@H](NC(=O)[C@H](CC(C)C)NC(=O)[C@H](CCCCN)NC(=O)[C@H](Cc1c[nH]c2ccccc12)NC(=O)[C@H](CC(C)C)NC(=O)[C@H](CC(=O)O)NC(=O)[C@H](CO)NC(=O)[C@H](Cc1ccccc1)NC(=O)[C@@H](NC(=O)[C@H](CCC(=O)O)NC(=O)[C@H](CCC(N)=O)NC(=O)[C@H](CO)NC(=S)Nc1ccc2c(c1)C(=O)OC21c2ccc(O)cc2Oc2cc(O)ccc21)[C@@H](C)O)C(=O)O` [p53_FITC] here?
Its Kd is 51 ± 15 nM.

With `CC(C)C[C@H](NC(=O)[C@H](CC(=O)O)NC(=O)[C@H](CO)NC(=O)[C@H](Cc1ccccc1)NC(=O)[C@@H](NC(=O)[C@H](CCC(=O)O)NC(=O)[C@@H](N)CCC(N)=O)[C@@H](C)O)C(=O)N[C@@H](Cc1c[nH]c2ccccc12)C(=O)N[C@@H](CCCCN)C(=O)N[C@@H](CC(C)C)C(=O)N[C@@H](CC(C)C)C(=O)N1CCC[C@H]1C(=O)N[C@@H](CCC(=O)O)C(=O)N[C@@H](CC(N)=O)C(=O)N[C@@H](CC(N)=O)C(=O)N[C@H](C(=O)O)C(C)C` [P53] as the compound, how does the Ki [3] read?
The Ki was 361 nM.
